Data published in US8791145B2, “Agricultural formulations with acyl morpholines and polar aprotic co-solvents” (Akzo Nobel Chemicals International B.V., priority 2010, dated 2014).

Assay: Solubility in acyl morpholines
Type: physicochemical
Details: 23° C.
Description: Various agriculturally active ingredients were dissolved in N-formyl morpholine, N-acetyl morpholine and N-propionyl morpholine in order to evaluate the solubility of the active ingredients in the solvents. This was done by adding the active ingredient to a beaker and thereafter adding the solvent until a clear solution was obtained. The solutions were continually stirred at a temperature of 23° C. during the experiments. When everything had been dissolved, the beakers were left without stirring for 24 h to see if the solution was stable (i.e. no crystallization).

| SMILES | Dissolution of active ingredient into N-acetyl morpholine (NAM) | Dissolution of active ingredient into N-formyl morpholine (NFM) | Dissolution of active ingredient into N-propionyl morpholine (NPM) |
| --- | --- | --- | --- |
| CC(C)c1nn(C(=O)NC(C)(C)C)c(=O)n1N [Amicarbazone] | 24 grams of active ingredient in 100 g solvent | 26 grams of active ingredient in 100 g solvent | 24 grams of active ingredient in 100 g solvent |
| Cc1cc(Cl)ccc1OCC(=O)O [MCPA] | >100 grams of active ingredient in 100 g solvent | >100 grams of active ingredient in 100 g solvent | >100 grams of active ingredient in 100 g solvent |
